Test results as given in publication PMC7408396, “IPEC-J2 rMdr1a, a New Cell Line with Functional Expression of Rat P-glycoprotein Encoded by Rat Mdr1a for Drug Screening Purposes” (Pharmaceutics, 2020).

Assays:
[1] = mice; cited from earlier work
[2] = rats, steady-state intravenous brain distribution; cited from earlier work
[3] = tested on: rat Mdr1a P-gp; details: IPEC-J2 rMdr1a monolayers, Figure 5 comparison series

In the case of `Cc1cc2c(s1)Nc1ccccc1N=C2N1CCN(C)CC1` [olanzapine], the “Kp,uu” value [1] is given as 6.9, the “Kp,uu (unbound brain-to-plasma concentration ratio)” value [2] is given as 2.13 and the efflux ratio [3] is given as 1.9.
